# AlphaSeq binding of Ab-14 light chain variants to a spike HR2 peptide

Values reported by Li et al. 2023, doi:10.1038/s41467-023-39022-2 (FLAb copy).

Target: peptide PDVDLGDISGINAS, taken from heptad repeat 2 (HR2) of SARS-CoV-2 spike.

Parent scFv Ab-14: VH joined to VL by a 15-residue (Gly4Ser)3 linker. Changes lie in the light chain CDRs alone.
VH: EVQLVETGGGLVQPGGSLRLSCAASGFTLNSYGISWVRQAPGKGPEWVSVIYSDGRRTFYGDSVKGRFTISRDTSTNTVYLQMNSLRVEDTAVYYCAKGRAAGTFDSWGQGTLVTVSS
VL: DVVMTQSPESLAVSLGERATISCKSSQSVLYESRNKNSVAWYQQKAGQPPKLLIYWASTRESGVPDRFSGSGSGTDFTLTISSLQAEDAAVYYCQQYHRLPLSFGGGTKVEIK

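Phage display of a naive human antibody library on the peptide gave the parent. The variants were designed computationally from a first round of random CDR variants and then made and measured. Group labels follow the data file (Ctrl: baseline library sampled from a position-specific scoring matrix, with some repeated check sequences; En: ensemble of fine-tuned language models; GP: Gaussian process model; HC: hill climbing; Gen: genetic algorithm; Gibbs: Gibbs sampling; a sequence that several methods proposed may carry one label only). Affinity was read by AlphaSeq, a pooled yeast mating assay with surface-displayed partners. The frequency of each diploid, read from paired DNA barcodes, reflects how well the two displayed proteins bind. A regression on co-assayed BCL2-family reference pairs converts the normalised counts of each replicate to an apparent Kd. There are six technical replicates.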

Each variant is given by its three light chain CDRs, as the data file delimits them; those of the parent are KSSQSVLYESRNKNSVA, WASTRES, QQYHRLPLS. Scale: log10 of Kd in nM, estimated from mating counts; low values are strong binders. The mean shown is taken over the replicates in which the pair was detected. "no signal" means that the variant was in the library but no mating with the target was seen in any replicate; the authors take this as a sign of poor binding, and no number exists. The authors averaged sequences with at least three values out of six and counted those with two or fewer as poor binders. The range of this assay differs from that of the first round, and the authors advise against merging the two. Background: pairings of all light chain designs with three empty control strains gave a value in 4% of cases (median 2.64, 5th percentile 1.59). Values in that range, when seen in few replicates, are hard to tell from nonspecific mating. Some sequences occur more than once in the pool; their replicates are pooled. Of ten entries with the parent sequence, four were seen in most replicates (averages 0.34 to 2.37), three in one and three in none, so single entries are noisy.

CDR-L1,CDR-L2,CDR-L3,group,mean log10 Kd (nM),detected
KVSILDDGGDRNKNSVA,HASTRES,QQYHRLPLS,GP_Gibbs,0.26,6 of 6
IVTEAQNENSLYTNNIA,NGENTLA,QQYFRLPLQ,En_Gibbs,0.51,6 of 6
ILSQSVLMGMHLKNSVA,QATVRFN,QQYHRLPLM,En_HC,2.17,1 of 6
KSSQSVLDESQNKNSVA,WASTRES,QQYHTLPLS,Ctrl,1.98,4 of 6
IIYESAGTLSRNTNSVA,DNSTREK,QQYDRLPLS,En_HC,2.22,6 of 6
KLSQSVLYEERNPNSVA,NASQRES,QQYHRLPLS,GP_Gen,-0.12,6 of 6
KLSQSVLYESRMKNSVA,EASTREQ,QQYHRLPLS,GP_Gen,-0.49,6 of 6
KFSQSVLYESRTQNSVA,NASTRES,QWYHRLPLS,GP_HC,0.51,6 of 6
KYQQSEGYESRNQNSVA,AASQREE,QQYHRLPLS,GP_Gibbs,0.03,6 of 6
KLSQSVMFMSGVYNSVA,QMSTRAE,QQYNRLPLA,En_HC,0.59,6 of 6
KSYISDLYESRNKNSVA,EASTRES,QQYHRLPLS,GP_HC,-0.27,6 of 6
IITQSVMQESRNKSNVA,NTTEREP,QQYDRLPLI,En_HC,2.43,5 of 6
KSSQSVLRESRNKNSVA,EASTRES,QQYHHLPLS,Ctrl,1.96,6 of 6
TISQSWFIEQKNKNNVA,EMTTREN,QDYDRLPLS,En_HC,1.76,6 of 6
KSSESDTYESRNYNSVA,NASTRES,QQYHRLFLS,Ctrl,1.03,5 of 6
KLQQSELYESRNKNSVA,NASTRSS,QQYHRLPLS,GP_Gen,0.11,6 of 6
KSSGSVLGEDWNKNSVA,QASKRES,QQYHRLPLS,GP_Gibbs,0.80,6 of 6
TISQSAQQESHNKNSVA,DLSVRGN,QQYDRLPLS,En_HC,no signal,0 of 6
SFPESLRQQQTNVNAVA,GAQHTAR,QQYGRLPLT,En_Gibbs,1.54,6 of 6
KISQSWIYESRNKNSVA,GASTRES,QQYHRLPLS,GP_HC,-0.29,6 of 6
HITMMVGTKGYNKNSVA,NAETRED,QQYHRLPLS,En_HC,1.01,6 of 6
ALSQSMDMTSRNVNSVA,DLTTRMN,QQYHRLPLS,En_HC,0.33,6 of 6
KLCQSTLYESRNKNSVA,GASTRES,QQYHRLPLS,GP_HC,-0.37,6 of 6
KSSQSVLYEERNGNSVA,NASTRES,QQYHRLPLW,Ctrl,1.69,6 of 6
KLPQSVLYESRMKNSVA,NASTRES,QQYHRLPLS,GP_Gen,-0.63,6 of 6
HLSWVYLYESRNKNSVA,NASTRES,QQYHRLPLS,GP_HC,0.20,6 of 6
QISLNGEDGEPYEYAVA,EGSIADA,QQYHRLPLS,En_Gibbs,2.37,5 of 6
KSSQSVLYENRNTNSVA,EASTRES,QAYHRLPLS,Ctrl,1.31,6 of 6
KMSISYLGESRNKNSVA,EASTRES,QQYHRLPLS,GP_HC,0.22,6 of 6
KLSQSLLYESRNKNSVA,WASTRES,QQYSRLPLS,Ctrl,0.29,6 of 6
ALGTSTLEESRNKNSVA,EMSLREA,QSYNRLPLS,En_HC,0.71,6 of 6
KISQMSTIESIKHNSVA,QTSTRVS,QQYDRLPLS,En_HC,1.00,6 of 6
KLQQMYEYESRWPNSVA,HASTREL,QQYHRLPLS,GP_Gibbs,1.75,6 of 6
KSSQSQLYESENKNSVA,SASTRES,QQYHRLPLI,Ctrl,0.89,6 of 6
KIGMTLNQLMRKKNNVA,DLVEREN,QQYFRLPLS,En_Gen,0.76,6 of 6
KSSQSVVYESNNKNSVA,WAMTRES,QQYHRLPLS,Ctrl,0.99,1 of 6
KLEQSVLYESRNKNAVA,NASTRMS,QQYHRLPLS,GP_Gen,-0.54,6 of 6
QIGMLLNFESKIVNNVA,QMETRVE,QQYDRLPLS,En_Gen,0.27,6 of 6
KLSSSELYESRNKNSVA,NASTRES,QQYHRLPLS,GP_Gen,0.41,6 of 6
KHPQGVLYESRNKNSVA,GASTRES,QQYHRLPLS,GP_HC,1.38,3 of 6
KLSQSVLYESRNKNSVA,KASTRES,QQYHRLPLS,Ctrl+GP_Gen,0.49,12 of 12
KQSQEVLFGSRNKNSVA,DASTRES,QQYHRLPLS,GP_HC,0.19,6 of 6
KMSQSELYESRNKNSVA,NASQRMS,QQYHRLPLS,GP_Gen,-0.21,6 of 6
KFYQSVLYESRTKNSVA,NASTRES,QQYHQLPLS,GP_HC,0.76,6 of 6
HISMMVGTKGYNKASVA,NAETRED,QQYHRLPLS,En_HC,0.19,6 of 6

3 of these entries, quoted again:

CDR-L1,CDR-L2,CDR-L3,group,mean log10 Kd (nM),detected
KISQSWIYESRNKNSVA,GASTRES,QQYHRLPLS,GP_HC,-0.29,6 of 6
KQSQEVLFGSRNKNSVA,DASTRES,QQYHRLPLS,GP_HC,0.19,6 of 6
SFPESLRQQQTNVNAVA,GAQHTAR,QQYGRLPLT,En_Gibbs,1.54,6 of 6